Reference: patent US20180259512A1

Biological target: human thyroid stimulating hormone receptor (human) (UniProt P16473)
Assay: cell-based or functional assay

S/N ratio of luminescence in the presence or absence of bTSH: 50 fold | minimum detectable quantity for bTSH (aequorin luminescence of CHO cells expressing human TSHR): 0.16 µU/mL | signal to blank ratio (S/N ratio) of luminescence at 100 µU/mL of bTSH: 45 times
Substance: bovine TSH (from UniProt P01217 25-120; P01223 21-132) (ligand)
